These are literature values, as cited in US7576088B2, “Benzodioxole derivatives” (Hoffman-La Roche Inc., priority 2002, dated 2009).

By UniProt entry, the sequences of proteins in these tests, tags left out.
UniProt P47746, whole entry: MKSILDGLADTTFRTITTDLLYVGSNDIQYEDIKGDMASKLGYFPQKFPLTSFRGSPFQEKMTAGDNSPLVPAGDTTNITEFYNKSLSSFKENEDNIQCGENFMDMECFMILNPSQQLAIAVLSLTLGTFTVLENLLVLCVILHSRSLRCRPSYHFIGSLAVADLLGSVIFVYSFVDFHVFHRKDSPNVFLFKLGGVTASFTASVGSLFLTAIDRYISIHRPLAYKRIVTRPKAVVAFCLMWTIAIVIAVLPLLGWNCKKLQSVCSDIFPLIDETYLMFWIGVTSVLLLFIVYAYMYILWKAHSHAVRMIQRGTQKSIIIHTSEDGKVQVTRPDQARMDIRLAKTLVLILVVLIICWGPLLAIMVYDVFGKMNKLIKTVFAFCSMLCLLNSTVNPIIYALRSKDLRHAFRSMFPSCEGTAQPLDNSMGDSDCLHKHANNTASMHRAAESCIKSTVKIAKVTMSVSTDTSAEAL

In the series the target is CB1 receptor (Mus musculus, UniProt P47746). The conditions noted are these: wild-type versus CB1 receptor knockout mice; cited from earlier work.

Molecules are shown by their SMILES.

For `Cc1c(C(=O)NN2CCCCC2)nn(-c2ccc(Cl)cc2Cl)c1-c1ccc(Cl)cc1` [SR141716A], the food intake result is recorded as “reduces food intake in wild-type but not knockout mice”.
